Assay results: ChEMBL document CHEMBL3046380, “In Vitro and In Vivo Characterization of Alpha-1A Selective Agonists and Their Utility for Stress Incontience” (Med Chem Res, 2004)
The source made the active and inactive calls. The calls are words filed in the database; no cut-off is given here.

Amino acid sequences for entries named in this document (tags omitted).
UniProt P15823, whole entry: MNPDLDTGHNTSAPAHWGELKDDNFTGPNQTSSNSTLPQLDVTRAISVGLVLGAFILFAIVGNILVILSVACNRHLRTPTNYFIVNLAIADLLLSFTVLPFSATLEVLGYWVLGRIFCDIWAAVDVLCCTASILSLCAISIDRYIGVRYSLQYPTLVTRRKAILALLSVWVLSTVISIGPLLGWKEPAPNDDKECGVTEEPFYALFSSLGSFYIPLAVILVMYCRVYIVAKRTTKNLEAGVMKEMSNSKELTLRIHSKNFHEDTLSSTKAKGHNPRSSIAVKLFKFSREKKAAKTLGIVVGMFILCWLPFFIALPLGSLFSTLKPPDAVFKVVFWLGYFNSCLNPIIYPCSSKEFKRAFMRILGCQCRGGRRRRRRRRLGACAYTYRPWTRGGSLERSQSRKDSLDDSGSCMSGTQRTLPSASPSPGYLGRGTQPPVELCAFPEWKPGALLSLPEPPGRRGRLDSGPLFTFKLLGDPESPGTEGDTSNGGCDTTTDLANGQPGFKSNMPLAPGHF

Target: Alpha-1B adrenergic receptor (Rattus norvegicus) (UniProt P15823)
Assay: Agonist activity at alpha1B adrenoreceptor in Rattus norvegicus (rat) spleen

SMILES	pEC50
Cn1cnc(C2CCCc3c(NS(C)(=O)=O)cccc32)c1 (configuration not stated)	inactive
CCS(=O)(=O)Nc1cccc(Cc2c[nH]cn2)c1C	inactive
